The list shows a part of the results, in another mix than the full data. The source made the active and inactive calls.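 How the source made its calls: active means fluorescence ratio falls more than 5 SD below the full-stimulation control mean, in both duplicate runs; inactive means the rest.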

Sequences of proteins named here, by UniProt entry; tags and fusion partners are left off.
UniProt Q61143, whole entry: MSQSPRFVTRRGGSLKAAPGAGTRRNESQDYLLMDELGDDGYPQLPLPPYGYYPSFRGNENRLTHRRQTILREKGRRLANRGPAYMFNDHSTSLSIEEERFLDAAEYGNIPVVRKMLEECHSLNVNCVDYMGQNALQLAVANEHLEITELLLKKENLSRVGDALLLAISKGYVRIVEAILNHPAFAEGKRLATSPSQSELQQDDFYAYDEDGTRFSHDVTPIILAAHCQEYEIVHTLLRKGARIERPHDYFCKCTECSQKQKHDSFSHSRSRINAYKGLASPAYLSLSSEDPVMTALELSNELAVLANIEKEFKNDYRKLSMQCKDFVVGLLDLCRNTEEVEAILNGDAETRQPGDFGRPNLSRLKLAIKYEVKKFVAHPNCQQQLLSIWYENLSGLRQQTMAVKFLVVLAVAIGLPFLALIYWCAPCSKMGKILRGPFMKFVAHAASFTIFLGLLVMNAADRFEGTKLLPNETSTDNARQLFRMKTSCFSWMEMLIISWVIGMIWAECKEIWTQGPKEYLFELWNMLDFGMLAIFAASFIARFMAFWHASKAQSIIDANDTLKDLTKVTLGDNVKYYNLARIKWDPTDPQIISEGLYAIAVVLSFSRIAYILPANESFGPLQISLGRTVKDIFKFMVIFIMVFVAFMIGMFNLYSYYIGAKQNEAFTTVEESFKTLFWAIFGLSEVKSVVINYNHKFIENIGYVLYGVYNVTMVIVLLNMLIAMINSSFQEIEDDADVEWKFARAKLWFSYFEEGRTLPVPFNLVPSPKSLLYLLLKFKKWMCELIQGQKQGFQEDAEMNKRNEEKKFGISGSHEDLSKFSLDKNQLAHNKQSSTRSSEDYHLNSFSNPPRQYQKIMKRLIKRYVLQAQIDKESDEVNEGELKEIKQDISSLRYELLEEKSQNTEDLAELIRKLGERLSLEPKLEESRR

This assay deals with Short transient receptor potential channel 6 (Mus musculus) (UniProt Q61143). As to the kind of experiment: blockers of TRPC6 cation channel activity – HEK293 cells, membrane potential dye, duplicate, confirmation (AID 488960).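 On inhibition: integrated fluorescence ratio of peak minus minimum over baseline after agonist.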 As to conditions: ACh-evoked depolarization, at 10 µM; active compounds read high.
As to `CN1CCN(CCOC(=O)C(O)(c2ccccc2)c2ccccc2)CC1`, the inhibition (in general, how much of the control response was suppressed) is active: 76%.

Take `O=C(OC1CN2CCC1CC2)C1c2ccccc2Oc2ccccc21` (centres undefined): the inhibition entry was “inactive”.

Consider `CCC(CO)(C(=O)OC1CN2CCC1CC2)c1ccccc1` (centres undefined), for which the inhibition was active: 69.8%.

For the compound `O=C(OC1CN2CCC1CC2)C1c2ccccc2C=Cc2ccccc21` (centres undefined), the inhibition was active: 74%.

These data come from PubChem BioAssay AID488960 (Johns Hopkins Ion Channel Center, 2010).
